# Experimental data taken from PubChem BioAssay (NCI).
# The entries are a selection whose mix differs from that of the whole data set. Where a structure was tested more than once in an assay, its records may differ in their call. Some salts or complexes appear as unconnected parts, following the source record. Calls of active or inactive are those of the source. No stated cut-off is given here; in the data, active means growth inhibition above about 70%; inactive means the rest.
# Assay: NCI Yeast Anticancer Drug Screen. Data for the rad18 strain (AID 177)
# Conditions: S. cerevisiae rad18 mutant growth inhibition, hits give high values
# Protocol: Growth inhibition of yeast strains with defined genetic alterations is measured as a screen for potential anti-cancer activity. Selected strains with alterations in DNA damage repair or cell cycle control were exposed to compounds and growth inhibition was measured relative to vehicle treated controls. The strain used in this assay is rad18
Structure (SMILES),growth inhibition (at 1.2 µM),growth inhibition (at 3.7 µM),growth inhibition (at 11.0 µM),growth inhibition (at 33.0 µM),growth inhibition (at 100.0 µM)
O=[N+]([O-])C(F)(COCC(O)CO)[N+](=O)[O-] (stereo not given),inactive: 56%,active: 79%,active: 85%,active: 93%,active: 94%
[Au+].[Au+].c1ccc([PH+](c2ccccc2)c2ccccc2)cc1.c1ccc([PH+](c2ccccc2)c2ccccc2)cc1.n1n[n-]c(-c2nnn[n-]2)n1,inactive: 24%,inactive: 57%,active: 99%,active: 99%,active: 98%
Cc1cc2ccccc2cc1C.O=[N+]([O-])c1cc([N+](=O)[O-])cc([N+](=O)[O-])c1,inactive: -1%,inactive: -3%,inactive: 0%,inactive: 14%,inactive: 55%
COc1ccccc1N.O=[N+]([O-])c1cc([N+](=O)[O-])cc([N+](=O)[O-])c1,inactive: 0%,inactive: 13%,active: 78%,active: 99%,active: 99%
Nc1ccccc1.O=[N+]([O-])c1cc([N+](=O)[O-])cc([N+](=O)[O-])c1,inactive: 1%,inactive: 8%,inactive: 69%,active: 99%,active: 99%
[Au+].[N-]=[N+]=N.c1ccc([PH+](c2ccccc2)c2ccccc2)cc1,inactive: 14%,active: 92%,active: 98%,active: 92%,active: 88%
Cc1ccc2ccc3ccc4ccccc4c3c2c1.O=C1c2cc([N+](=O)[O-])ccc2-c2c1cc([N+](=O)[O-])cc2[N+](=O)[O-],inactive: 7%,inactive: 18%,inactive: 44%,active: 71%,active: 83%
Cc1c2ccccc2cc2ccccc12.O=[N+]([O-])c1cc([N+](=O)[O-])c(O)c([N+](=O)[O-])c1,inactive: 1%,inactive: 9%,inactive: 28%,active: 79%,active: 97%
